Consider six compounds from PubChem BioAssay AID529 (NMMLSC, 2006).

By UniProt entry, the sequences of proteins in these tests, tags left out.
UniProt P13612, whole entry, looked up: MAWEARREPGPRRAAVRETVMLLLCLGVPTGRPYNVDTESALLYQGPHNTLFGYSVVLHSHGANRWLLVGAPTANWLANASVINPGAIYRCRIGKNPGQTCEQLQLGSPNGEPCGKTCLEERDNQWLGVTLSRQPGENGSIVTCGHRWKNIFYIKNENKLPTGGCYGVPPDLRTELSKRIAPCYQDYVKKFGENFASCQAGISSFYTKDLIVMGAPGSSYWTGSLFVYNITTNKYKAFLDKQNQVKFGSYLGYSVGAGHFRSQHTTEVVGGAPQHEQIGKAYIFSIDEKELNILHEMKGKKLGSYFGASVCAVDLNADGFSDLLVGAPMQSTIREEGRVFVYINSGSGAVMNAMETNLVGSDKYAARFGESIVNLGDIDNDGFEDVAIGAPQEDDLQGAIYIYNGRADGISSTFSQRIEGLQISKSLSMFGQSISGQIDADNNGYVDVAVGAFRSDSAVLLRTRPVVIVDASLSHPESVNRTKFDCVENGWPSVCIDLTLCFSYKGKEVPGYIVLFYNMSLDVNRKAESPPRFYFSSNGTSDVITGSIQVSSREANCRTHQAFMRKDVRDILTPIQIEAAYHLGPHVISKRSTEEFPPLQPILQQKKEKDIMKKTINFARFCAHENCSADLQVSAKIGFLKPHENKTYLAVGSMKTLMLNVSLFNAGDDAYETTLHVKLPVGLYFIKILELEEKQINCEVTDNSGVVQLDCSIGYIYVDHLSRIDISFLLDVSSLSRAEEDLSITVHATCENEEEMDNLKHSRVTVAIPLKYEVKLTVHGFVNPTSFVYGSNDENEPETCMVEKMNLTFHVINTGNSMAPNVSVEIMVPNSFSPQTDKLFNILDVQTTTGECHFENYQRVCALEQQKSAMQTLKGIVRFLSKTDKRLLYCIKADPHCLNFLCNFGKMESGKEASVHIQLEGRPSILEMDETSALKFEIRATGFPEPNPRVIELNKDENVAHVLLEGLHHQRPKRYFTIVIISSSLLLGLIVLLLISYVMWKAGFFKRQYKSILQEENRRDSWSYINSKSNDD

The entries are a selection whose mix differs from that of the whole data set. Inconclusive results are not listed. Activity calls are given as the source filed them.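 Rule for the calls: active = inhibition above 50%; inconclusive = compound itself fluorescent, judged against control cell fluorescence; inactive = the rest.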

The target of the experiment is Integrin alpha-4 (Homo sapiens) (UniProt P13612). In words: inhibitors of LDV-FITC binding to Mn2+-activated VLA-4, primary screen, Jurkat cells (AID 529).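 Note: 0% = Mn2+ stimulated cells lacking compound and 100% = ligand binding without Mn2+.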 Particulars: LDV-FITC binding with Mn2+, flow cytometry, stronger effect = higher value, screened at 10 µM (by protocol), 100% = Mn2+-driven binding gain fully reversed.
Take `CP(=S)(Nn1cnnc1)Oc1ccccc1` (stereo unspecified): the inhibition was inactive: -2.5%.
As for `Cc1ccccc1NP(C)(=O)Nc1ccccc1C`, the figure is inactive: -4%; as for `CP(=O)(Nc1ccc2c(c1)OCCO2)Oc1ccccc1` (stereo unspecified), inactive: -21%.
For the compound `CN(C)CCOC(=O)C(O)(c1ccccc1)C1CCCCC1` (stereo unspecified), the inhibition is inactive: -32%.
In the case of `CP(=O)(Nc1ccccn1)Oc1ccccc1` (stereo unspecified), the inhibition was inactive: -23%.
Turning to `Cc1nc2ccc3ccccc3c2o1.O=[N+]([O-])c1cc([N+](=O)[O-])c(O)c([N+](=O)[O-])c1`, the inhibition was 75%.

In general, inhibition refers to the change of the read-out against control, counted positive when it falls.
